# Results reported in ChEMBL document CHEMBL1147692, “Orally active thrombin inhibitors. Part 1: optimization of the P1-moiety” (Bioorg Med Chem Lett, 2006).
# Molecular target: Prothrombin (Homo sapiens, UniProt P00734)
# Test: Inhibition of thrombin
smiles,measurement,value
N=C(N)c1ccc(CNC(=O)[C@@H]2C=CCN2C(=O)[C@@H](CC2CCCCC2)NCC(=O)O)s1,IC50,980 pM
